The source of these data is PMC7470127, “Design, synthesis, and evaluation of 1, 4-benzodioxan-substituted chalcones as selective and reversible inhibitors of human monoamine oxidase B” (Journal of Enzyme Inhibition and Medicinal Chemistry, 2020).

Sequences of proteins named here, by UniProt entry; tags and fusion partners are left off.
UniProt P27338, whole entry: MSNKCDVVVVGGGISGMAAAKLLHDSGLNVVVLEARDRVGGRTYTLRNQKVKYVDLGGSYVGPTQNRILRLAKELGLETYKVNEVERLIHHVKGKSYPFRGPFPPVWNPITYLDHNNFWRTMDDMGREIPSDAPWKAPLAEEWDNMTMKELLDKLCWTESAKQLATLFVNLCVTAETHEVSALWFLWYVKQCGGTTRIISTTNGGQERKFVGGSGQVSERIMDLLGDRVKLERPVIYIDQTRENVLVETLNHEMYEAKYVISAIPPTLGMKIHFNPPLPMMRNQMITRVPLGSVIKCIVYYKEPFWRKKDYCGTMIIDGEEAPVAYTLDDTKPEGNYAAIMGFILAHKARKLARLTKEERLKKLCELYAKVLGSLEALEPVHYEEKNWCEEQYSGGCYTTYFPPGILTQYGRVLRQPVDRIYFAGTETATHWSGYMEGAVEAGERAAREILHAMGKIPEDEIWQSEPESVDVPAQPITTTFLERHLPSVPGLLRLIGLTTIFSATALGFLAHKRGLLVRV

This experiment deals with hMAO-B (Homo sapiens, UniProt P27338). The experiment can be described thus: hMAO inhibition assay (Amplex Red fluorescence), hMAO-B, benzylamine substrate.

For `O=C(C=Cc1ccccc1)c1ccccc1` [Compound 1, 1,3-diphenyl-2-propen-1-one], the “Selectivity Index (SI)” value is recorded as above 3. Besides, the inhibition at 10 µM (read-out: hMAO-B Inhibition (%)) amounted to 41.6%. As to `O=C(/C=C/c1ccc2c(c1)OCCO2)c1ccc(F)c(Br)c1` [Compound 22, (E)-1-(3-bromo-4-fluorophenyl)-3-(2,3-dihydrobenzo[b][1,4]dioxin-6-yl)prop-2-en-1-one], the “Selectivity Index (SI)” value is reported as above 1538.
